# Results: patent publication US9370523B2, “Method for diagnosing or prediagnosing a beta-amyloidopathy or an alpha-synucleopathy” (Immungenetics AG, priority 2010, dated 2016)
# Sequences of proteins named here, by UniProt entry; tags and fusion partners are left off. A change or cut given only in a name is not applied to a line headed by its entry.
# UniProt O35379: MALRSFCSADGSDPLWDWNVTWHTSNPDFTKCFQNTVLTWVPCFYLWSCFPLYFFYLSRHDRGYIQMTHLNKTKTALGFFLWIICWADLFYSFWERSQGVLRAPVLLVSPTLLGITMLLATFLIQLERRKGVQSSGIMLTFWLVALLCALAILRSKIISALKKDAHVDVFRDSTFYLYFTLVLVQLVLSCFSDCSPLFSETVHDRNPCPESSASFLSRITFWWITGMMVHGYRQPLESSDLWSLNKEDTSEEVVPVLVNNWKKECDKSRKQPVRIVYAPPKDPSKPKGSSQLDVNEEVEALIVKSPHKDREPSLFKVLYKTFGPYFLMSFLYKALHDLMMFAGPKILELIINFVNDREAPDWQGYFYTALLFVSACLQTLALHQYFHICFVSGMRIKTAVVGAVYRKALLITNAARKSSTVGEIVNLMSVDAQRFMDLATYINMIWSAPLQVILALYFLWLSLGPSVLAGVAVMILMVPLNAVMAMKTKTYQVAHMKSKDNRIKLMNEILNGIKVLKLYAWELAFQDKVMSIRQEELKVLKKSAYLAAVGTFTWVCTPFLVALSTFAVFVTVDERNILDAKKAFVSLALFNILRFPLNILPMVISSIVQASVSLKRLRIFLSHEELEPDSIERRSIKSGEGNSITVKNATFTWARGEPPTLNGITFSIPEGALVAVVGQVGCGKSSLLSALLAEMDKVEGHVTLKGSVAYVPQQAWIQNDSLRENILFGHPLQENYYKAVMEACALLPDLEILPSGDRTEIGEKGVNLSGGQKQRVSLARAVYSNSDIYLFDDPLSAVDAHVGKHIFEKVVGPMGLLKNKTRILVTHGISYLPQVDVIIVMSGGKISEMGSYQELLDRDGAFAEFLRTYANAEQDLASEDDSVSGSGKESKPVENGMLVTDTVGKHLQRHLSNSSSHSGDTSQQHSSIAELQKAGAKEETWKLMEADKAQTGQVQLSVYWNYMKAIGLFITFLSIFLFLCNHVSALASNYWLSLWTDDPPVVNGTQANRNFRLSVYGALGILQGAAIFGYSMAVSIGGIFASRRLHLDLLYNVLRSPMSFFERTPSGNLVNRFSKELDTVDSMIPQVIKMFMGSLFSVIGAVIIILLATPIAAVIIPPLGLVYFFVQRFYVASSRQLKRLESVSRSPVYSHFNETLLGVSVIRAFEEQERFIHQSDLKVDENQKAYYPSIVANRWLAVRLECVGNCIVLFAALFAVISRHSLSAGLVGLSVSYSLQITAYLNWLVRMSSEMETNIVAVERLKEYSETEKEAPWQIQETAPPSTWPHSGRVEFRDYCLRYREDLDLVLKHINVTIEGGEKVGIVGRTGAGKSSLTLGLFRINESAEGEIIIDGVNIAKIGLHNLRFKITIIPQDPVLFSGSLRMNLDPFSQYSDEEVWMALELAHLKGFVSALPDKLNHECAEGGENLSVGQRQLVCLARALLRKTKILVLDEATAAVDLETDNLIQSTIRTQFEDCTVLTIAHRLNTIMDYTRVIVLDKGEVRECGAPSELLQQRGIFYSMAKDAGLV
# Target: T1, ABCC1 transporter (Mus musculus, UniProt O35379)
# T1 construct: from tissue; host or cells: living APP-transgenic mice (FVB background); ABCC1 is expressed mainly in the plexus choroideus of the brain
# Test: Treatment of mice with amyloid deposits for 30 days, ELISA measurement of brain Aβ
# Assay type: in vivo
# Protocol: Mice with amyloid deposits were treated for 30 days with the anti-emeticthiethylperazine(Torecan®,2-(ethylthio)-10-[3-(4-methylpiperazin-1-yl)propyl]-10H-phenothiazine). 3 mg/kg body weight was administered intramuscularly twice daily. […] The results are reproduced graphically in FIGS. 3a-3e.
# APP-transgenic mice (APP, APPdt) were obtained from The Jackson Laboratory (Bar Harbor, USA) and the University of Tübingen (Tübingen, Germany). The NEP-deficient mice were obtained from the Riken Brain Research Institute (Saitama, Japan). ABCG2-, ABCB1-, and ABCC1-deficient mice were obtained from Taconic-Farms (Denmark). All transgenic and knockout mouse lines were hybridised for at least 9 generations in the geneticFVB-background. The mice were held in a 12 h/12 h light/dark cycle at 23° C. with free access to food and water.
# For the tissue preparation the mice were killed by cervical dislocation and perfused transcardially with PBS (phosphate-buffered, physiological saline solution). The brain was removed and one hemisphere was stored in buffered 4% paraformaldehydefor paraffin embedding andimmunohistochemistry. The other hemisphere was shock-frozen in liquid nitrogen and stored at −80° C. for biochemical analyses.
# ELISA kits (TH40HS, TK42HS) from The Genetics Company (TGC, Schlieren, Switzerland) were used for the quantification of Aβ. Brain hemispheres were homogenised using PreCellys24 (12 s, 6,500 rpm). After addingcarbonate buffer (pH 8.0) the homogenisates were mixed using PreCellys (5 s, 5,000 rpm) and centrifuged for 90 min at 4° C. and 24,000 g, in order to separate insoluble from soluble Aβ species. […] Protein contents of all the samples were measured three times, using a Nanodrop1000 spectrophotometer (ThermoFisher Scientific, Wilmington, USA). […]
# TheLillieforsgoodness-of-fit test (alpha=0.05) was applied to the ELISA data and to the log-transformed ELISA data to distinguish between the assumption of normally distributed sample data and the assumption of log-normally distributed sample data. […] Mean confidence intervals were calculated assuming a basic log-normal distribution. […]
smiles,measurement,setting,value
"CCSc1ccc2c(c1)N(CCCN1CCN(C)CC1)c1ccccc1S2 [thiethylperazine, 2-(ethylthio)-10-[3-(4-methylpiperazin-1-yl)propyl]-10H-phenothiazine]","effect on Aβ values (FIGS. 3a-3e), in words",activation of ABCC1 by administration of Torecan,reduces the Aβ values
same,Aβ values in mice (FIG. 3e),"change of Aβ values on activation of ABCC1, n=4, *p<0.05",−28%
same,reduction in the quantity of Aβ compared to vehicle-treated animals,"mice with amyloid deposits, 3 mg/kg body weight intramuscularly twice daily for 30 days, ELISA, vehicle = water",at least 31%
